Test results: PubChem BioAssay AID504411 (The Scripps Research Institute Molecular Screening Center, 2011)
The list shows a part of the results, in another mix than the full data. Activity calls are given as the source filed them. Cut-off read from the data, not from the text of the source: active = inhibition above about 34%; inactive = the rest.

The chains behind the UniProt entries cited, without tags or fusion partners. Where a name states a change or a piece, a line headed by the entry shows the natural chain unless it says otherwise.
UniProt Q8NCG7: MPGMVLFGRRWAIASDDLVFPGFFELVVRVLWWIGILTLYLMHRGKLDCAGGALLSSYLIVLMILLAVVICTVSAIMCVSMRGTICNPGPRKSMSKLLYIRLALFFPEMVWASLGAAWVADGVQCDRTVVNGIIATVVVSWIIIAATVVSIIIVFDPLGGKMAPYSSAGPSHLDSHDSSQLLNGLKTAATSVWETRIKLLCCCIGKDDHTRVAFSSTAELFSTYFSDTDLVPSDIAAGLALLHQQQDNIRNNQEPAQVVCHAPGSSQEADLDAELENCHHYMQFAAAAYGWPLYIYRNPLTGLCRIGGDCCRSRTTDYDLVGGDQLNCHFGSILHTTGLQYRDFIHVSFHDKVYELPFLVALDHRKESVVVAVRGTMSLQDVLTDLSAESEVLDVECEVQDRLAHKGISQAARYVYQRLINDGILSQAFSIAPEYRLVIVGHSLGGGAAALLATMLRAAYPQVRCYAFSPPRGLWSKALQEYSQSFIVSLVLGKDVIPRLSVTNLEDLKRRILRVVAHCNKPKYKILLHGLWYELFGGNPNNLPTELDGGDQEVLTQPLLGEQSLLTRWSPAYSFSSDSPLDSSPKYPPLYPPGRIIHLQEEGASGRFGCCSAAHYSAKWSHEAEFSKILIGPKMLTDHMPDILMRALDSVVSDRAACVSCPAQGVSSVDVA

What follows are compounds tested against Diacylglycerol lipase-beta (Homo sapiens) (UniProt Q8NCG7) (assay: DAGLB lipase inhibitors, primary screen, biochemical, fluorescence, HTS (AID 504411;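 note: 0% = enzyme with vehicle and 100% = wells lacking enzyme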)). Settings: HEK293T DAGLB membrane lysate, EnzChek fluorogenic substrate; at 5.17 µM; active compounds read high.

Row | SMILES | inhibition
1 | O=[N+]([O-])c1ncn(CCn2ncnc2[N+](=O)[O-])n1 | inactive: 0.47%
2 | CC(C)(C)C(=O)NC(Sc1ccncn1)C(Cl)(Cl)Cl (configuration not stated) | inactive: 1.45%
3 | O=C(O)CNc1ccc([As](=O)(O)O)cc1 | inactive: -1.06%
4 | O=[N+]([O-])c1cccc(NC2=NCC(CBr)S2)c1 (configuration not stated) | inactive: 0.1%
5 | COC(=O)C1(C)COP(=O)(Nc2ccccc2)OC1 (configuration not stated) | inactive: -0.66%
6 | O=P1(N(CCCl)CCCl)OCCCS1 (configuration not stated) | inactive: -0.2%
7 | O=C(Nc1cc([As](=O)(O)O)ccc1O)c1ccccc1 | inactive: 0.15%
8 | CCN(/C(=N/P(=O)(N1CCOCC1)N1CCOCC1)N1CCOCC1)c1ccc(OC)cc1 | inactive: 2.06%
9 | Nc1ccc([As](=O)(O)c2ccc(N)cc2)cc1 | inactive: 0.7%
10 | C[N+]1=C2C=CC=CC=C2SC12C([N+](=O)[O-])=CC([N+](=O)[O-])=C[C-]2[N+](=O)[O-] (configuration not stated) | inactive: 11.4%
11 | c1cc(-c2nn[nH]n2)ccc1-c1nn[nH]n1 | inactive: 0.67%
12 | CC1CCN(C(=O)Oc2c(Cl)cc(Cl)c3cccnc23)CC1 | inactive: -7.21%
13 | CC(C)=N/N=C(\N)N[N+](=O)[O-] | inactive: 0.29%
14 | CC(C)c1nc(Nc2ccccc2)n(P(=O)(N(C)C)N(C)C)n1 | inactive: -4.28%
15 | CN(C)C(=O)OCCc1n(C)cc[n+]1C | inactive: -2.42%
16 | COc1ccc(C2=NCC(CBr)S2)cc1 (configuration not stated) | inactive: -2.15%
17 | Cc1ccc(NP(=O)(Oc2ccccc2)Oc2ccccc2)nc1 | inactive: -0.03%
18 | O=[N+]([O-])c1cc([N+](=O)[O-])c(CCNc2ccccc2)c([N+](=O)[O-])c1 | inactive: 14.4%
19 | CCc1nc2c(n1)c1c(non1O)c1c2no[n+]1[O-] | inactive: 0.32%
20 | CC(=O)N1C2C3N(C(C)=O)C1C1N(C(C)=O)C(C(N1C(C)=O)N3C(C)=O)N2C(C)=O | inactive: -1.28%
21 | O=[N+]([O-])c1cccc2n[nH]nc12 | inactive: -1.05%
22 | Oc1ccccc1CNc1ccccn1 | inactive: -0.38%
23 | O=C(NC(Sc1ccncn1)C(Cl)(Cl)Cl)c1ccccc1 (configuration not stated) | inactive: 0.08%
24 | CC(C)CC(=O)NC(Sc1ccc(Cl)cc1)C(Cl)(Cl)Cl (configuration not stated) | inactive: -6.86%
25 | Nc1cc(N)c2nonc2c1[N+](=O)[O-] | inactive: -2.29%
26 | CN(C(=O)Cc1ccc(Cl)c(Cl)c1)[C@H]1CCCC[C@H]1N1CCCC1 | inactive: -0.41%

Row | SMILES | inhibition
27 | Cc1ccc(N/C(=N/P(=O)(N2CCOCC2)N2CCOCC2)N2CCOCC2)cc1 | inactive: 1.81%
28 | NC(=O)c1cc([N+](=O)[O-])cc([N+](=O)[O-])c1N | inactive: -0.11%
29 | Clc1ccc(Cl)c(NC2=NCC(CBr)S2)c1 (configuration not stated) | inactive: 0.94%
30 | CN1CCCC(OC(=O)C(c2ccccc2)c2ccccc2)C1 (configuration not stated) | inactive: 1.22%
31 | COc1ccccc1OP(=O)(Nc1ccc(C)cn1)Oc1ccccc1OC | inactive: -1.21%
32 | Nc1cccc2ccc([As](=O)(O)O)cc12 | inactive: 0.21%
33 | CCN(N=Nc1nonc1N)c1nonc1N | inactive: -0.27%
34 | CN(C)P(=O)(N(C)C)n1c(Nc2ccccc2)nnc1-c1ccccc1 | inactive: -6.89%
35 | O=P(Nc1nc2ccc(Cl)cc2s1)(c1ccccc1)c1ccccc1 | inactive: -3.41%
36 | O=C(O)c1ccccc1[As](=O)(O)O | inactive: 0.5%
37 | CC(=O)Nc1ccc([As](=O)(O)O)cc1 | inactive: 1.12%
38 | CCCC1OP(N)(=O)OCC1CC (configuration not stated) | inactive: 0.19%
39 | CCOP(=O)(Nc1ccccc1)OCC | inactive: 3.87%
40 | Cc1cc(SC(NC(=O)c2ccc(F)cc2)C(Cl)(Cl)Cl)ncn1 (configuration not stated) | inactive: 3.51%
41 | CN(C(=O)Cc1ccc(Cl)c(Cl)c1)[C@H]1CCCC[C@@H]1N1CCCC1 | inactive: 2.58%
42 | Cc1ccc(NP(=O)(Oc2ccccc2F)Oc2ccccc2F)nc1 | inactive: -0.97%
43 | O=C(OC1CN2CCC1CC2)c1ccccc1 (configuration not stated) | inactive: 0.15%
44 | CCC(=O)N1C2C3N(C(=O)CC)C1C1N(C(=O)CC)C(C(N1C(=O)CC)N3C(=O)CC)N2C(=O)CC | inactive: -0.49%
45 | COC(=O)c1cc2c(s1)N=C(c1ccccc1)N(C)P2(=O)N1CCOCC1 (configuration not stated) | inactive: -1.49%
46 | Cc1ccc(OP(=O)(Nc2ccccn2)Oc2ccc(C)cc2)cc1 | inactive: -3.87%
47 | CC(=O)NC(SC(=S)N(CC(C)C)CC(C)C)C(Cl)(Cl)Cl (configuration not stated) | inactive: -2.31%
48 | Cc1ccccc1OP(=O)(Nc1ccccn1)Oc1ccccc1C | inactive: 0.69%
49 | CC(NC(=O)COC(=O)C(O)(c1ccccc1)c1ccccc1)c1ccccc1 (configuration not stated) | inactive: 1.23%
50 | CN(C)C(=O)Oc1noc2ccccc12 | inactive: -1.18%
51 | O=c1c2cc([N+](=O)[O-])ccc2[nH]c2c([N+](=O)[O-])cc([N+](=O)[O-])cc12 | inactive: 11.4%
52 | O=C(NC1CCS(=O)(=O)C1)NP(=S)(Oc1ccccc1)Oc1ccccc1 (configuration not stated) | inactive: -4.96%

Row | SMILES | inhibition
53 | CCNC(=S)/N=C(\N)N[N+](=O)[O-] | inactive: -1.04%
54 | O=P1(N(CCCl)CCCl)OCCC2CCCCN21 (configuration not stated) | inactive: 2.1%
55 | Cc1ccccc1CN(C)C(=O)COC(=O)C(O)(c1ccccc1)c1ccccc1 | inactive: -3.8%
56 | C[C@@H]1C=CCP(=O)(Oc2ccccc2)O1 (some centres not stated) | inactive: -1.52%
57 | C[C@H]1OP(=O)(Oc2ccccc2)C[C@@H]2O[C@@H]21 (some centres not stated) | inactive: 0.35%
58 | N#C/C(=C\c1ccc(N(CCBr)CCBr)cc1)C(N)=O | inactive: 0.78%
59 | CC(=O)c1ccc(N2CC2c2ccncc2)cc1 (configuration not stated) | inactive: -1.97%
60 | COC(=O)C1(C)COP(=O)(NCc2ccccc2)OC1 (configuration not stated) | inactive: -1.86%
61 | CC(=O)Nc1ccc([As](=O)(O)O)c(O)c1 | inactive: 0.04%
62 | CC(=O)Nc1ccc(Oc2c([N+](=O)[O-])cc([N+](=O)[O-])cc2[N+](=O)[O-])cc1 | inactive: 5.48%
63 | O=P1(Nc2nc3ccc(Cl)cc3s2)COc2ccccc2O1 (configuration not stated) | inactive: 1.21%
64 | CCOc1ccc(C2=NCC(CBr)S2)cc1 (configuration not stated) | inactive: -0.01%
65 | CC(C)(C)C(=O)NC(Sc1ccccc1)C(Cl)(Cl)Cl (configuration not stated) | inactive: -3.97%
66 | CCc1cc(O)c([N+](=O)[O-])c(C)c1[N+](=O)[O-] | inactive: 2.85%
67 | O=P(Nc1nccs1)(c1ccccc1)c1ccccc1 | inactive: -0.45%
68 | CC(C)C(=O)NC(Sc1ccccc1)C(Cl)(Cl)Cl (configuration not stated) | inactive: 1.97%
69 | c1nnnn1CCn1cnnn1 | inactive: -0.71%
70 | O=[As](O)(c1ccccc1)c1ccc(O)cc1 | inactive: 0.06%
71 | O=[N+]([O-])c1ncn(CCn2cnc([N+](=O)[O-])n2)n1 | inactive: -0.27%
72 | CC(=O)NC(SC(=S)N(C)C)C(Cl)(Cl)Cl (configuration not stated) | inactive: -1.45%
73 | O=[N+]([O-])c1ccc(O)c(/C=N/Nc2ccc([N+](=O)[O-])cc2[N+](=O)[O-])c1 | inactive: 3.78%
74 | O=C(OC1CN2CCC1CC2)c1cccc(Cl)c1 (configuration not stated) | inactive: 0.2%
75 | Nc1ccc([As](=O)(O)c2ccc([N+](=O)[O-])cc2)cc1 | inactive: 1.03%
76 | C(Cc1nn[nH]n1)Cc1nn[nH]n1 | inactive: -1.33%
77 | CN(C)C1(CNC(=O)c2ccc(Cl)c(S(N)(=O)=O)c2)CCCCC1 | inactive: 0.46%
78 | O=P(Nc1ccccn1)(c1ccc(Br)cc1)c1ccc(Br)cc1 | inactive: 1.56%

Row | SMILES | inhibition
79 | COc1ccc(N)c([N+](=O)[O-])c1[N+](=O)[O-] | inactive: 10.7%
80 | O=P(Nc1nc2ccccc2s1)(c1ccccc1)c1ccccc1 | inactive: 0.66%
81 | C[C@H]1OP(=O)(Oc2ccccc2)[C@H](O)[C@H](O)[C@H]1N=[N+]=[N-] (some centres not stated) | inactive: 0.02%
82 | O=P1(Nc2ncccn2)COc2ccccc2OC1 | inactive: 1.32%
83 | Nc1cccc([As](=O)(O)c2ccccc2)c1 | inactive: -0.24%
84 | NS(=O)(=O)c1cccc(NC(=O)COC(=O)C(O)(c2ccccc2)c2ccccc2)c1 | inactive: -1.95%
85 | O=P1(Nc2ccc(Br)cn2)COc2ccccc2OC1 | inactive: -2.42%
86 | O=[As](O)(c1cccs1)c1cccs1 | inactive: -3.36%
87 | Cc1ccc(OCC(=O)OC2CN3CCC2CC3)cc1 (configuration not stated) | inactive: -1.02%
88 | Cc1nn(-c2ccccc2)c2c1P(=O)(N1CCOCC1)N(C)C(c1ccccc1)=N2 (configuration not stated) | inactive: 2.07%
89 | Cc1ccc(C(=O)OC2CN3CCC2CC3)cc1 (configuration not stated) | inactive: -0.86%
90 | CC1CCC(C(C)C)C(OP(=O)(Nc2ccccn2)c2ccccc2)C1 (configuration not stated) | inactive: 1.22%
91 | CN(C)C1(CNC(=O)c2ccc(S(C)(=O)=O)cc2)CCCCC1 | inactive: -0.34%
92 | O=C(/C=C/c1ccccc1)OC1CN2CCC1CC2 (configuration not stated) | inactive: -1.62%
93 | CCCC1OP(=O)(Nc2ccccc2)OCC1CC (configuration not stated) | inactive: -2.69%
94 | COc1ccccc1CNC(=O)COC(=O)C(O)(c1ccccc1)c1ccccc1 | inactive: 1.42%
95 | CN(C(=O)Cc1ccc(Cl)c(Cl)c1)[C@@H]1CCCC[C@H]1N1CCCC1 | inactive: 2.73%
96 | CC(C)/C=N\N=C(\N)N[N+](=O)[O-] | inactive: -2.24%
97 | CC1(CBr)Cn2c(nc3ccccc3c2=O)S1 (configuration not stated) | inactive: 1.76%
98 | CCC1=CC2Cc3nc4ccc(Cl)cc4c(N)c3C(C1)C2 (configuration not stated) | inactive: 1.19%
99 | O=P1(Nc2ccccn2)COc2ccccc2OC1 | inactive: -2.39%
100 | CCOP(=O)(NC(=NC(C)c1ccccc1)NC(C)c1ccccc1)OCC (configuration not stated) | inactive: -3.64%
101 | CCOP(=O)(Nc1ccc(C)cn1)OCC | inactive: 0.8%
102 | Clc1n[nH]nc1-c1nn[nH][15n]1 | inactive: -6.94%
